Measurements taken from US7482376B2, “Conjugated complement cascade inhibitors” (3-Dimensional Pharmaceuticals, Inc., priority 2003, dated 2009).

By UniProt entry, the sequences of proteins in these tests, tags left out. Residues count along the entry.
UniProt P09871, 16-437 limits assumed: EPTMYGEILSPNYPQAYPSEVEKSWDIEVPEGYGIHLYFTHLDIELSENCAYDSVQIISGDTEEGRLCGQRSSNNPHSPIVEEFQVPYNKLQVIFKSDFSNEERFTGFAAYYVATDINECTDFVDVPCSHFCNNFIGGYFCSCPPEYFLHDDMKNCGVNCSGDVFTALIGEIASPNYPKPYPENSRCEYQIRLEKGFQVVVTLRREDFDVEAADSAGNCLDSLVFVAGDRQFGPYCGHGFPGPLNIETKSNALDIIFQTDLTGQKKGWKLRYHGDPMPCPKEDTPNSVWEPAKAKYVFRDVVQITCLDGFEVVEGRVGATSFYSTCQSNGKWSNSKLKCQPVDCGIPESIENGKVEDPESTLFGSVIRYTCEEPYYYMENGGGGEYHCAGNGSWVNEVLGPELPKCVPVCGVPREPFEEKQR
UniProt P09871, 438-688 limits assumed: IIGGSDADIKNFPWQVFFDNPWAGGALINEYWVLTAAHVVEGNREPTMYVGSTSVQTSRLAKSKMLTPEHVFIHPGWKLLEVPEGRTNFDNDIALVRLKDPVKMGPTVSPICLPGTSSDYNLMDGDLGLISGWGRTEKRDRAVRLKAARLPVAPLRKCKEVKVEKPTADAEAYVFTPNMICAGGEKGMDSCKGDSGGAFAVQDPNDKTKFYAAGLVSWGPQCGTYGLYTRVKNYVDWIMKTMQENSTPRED
UniProt O00187, 300-444: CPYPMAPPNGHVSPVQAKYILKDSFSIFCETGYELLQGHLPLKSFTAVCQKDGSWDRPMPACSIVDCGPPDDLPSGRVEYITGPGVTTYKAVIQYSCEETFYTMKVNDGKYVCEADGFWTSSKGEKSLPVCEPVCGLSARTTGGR
UniProt O00187, 445-686: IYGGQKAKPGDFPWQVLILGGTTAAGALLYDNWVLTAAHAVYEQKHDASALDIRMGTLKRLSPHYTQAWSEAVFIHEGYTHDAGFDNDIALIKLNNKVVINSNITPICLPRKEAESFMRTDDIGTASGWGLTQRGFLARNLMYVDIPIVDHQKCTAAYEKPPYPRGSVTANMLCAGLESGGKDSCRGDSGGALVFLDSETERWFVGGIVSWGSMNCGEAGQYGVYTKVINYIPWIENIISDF

What was measured:
[1] = target: Activated human C1s (Homo sapiens, UniProt P09871); conditions: read-out: hC1s Ki corr.; Ki app corrected for substrate concentration (45 μM, Km=78 μM); 37° C., pH 7.5
Procedure: Reagents: All buffer salts were obtained from Sigma Chemical Company (St. Louis, Mo.), and were of the highest purity available. DTNB was purchased from Pierce (Rockford, Ill.). Z-Gly-Arg-S-Bzl was purchased from Enzyme Systems Products (Livermore, Calif.). Activated human C1s was purchased from Calbiochem (La Jolla, Calif.).
(§1) Reactions were initiated by the addition of a 10 μL aliquot of the enzyme, and the absorbance increase at 405 nm is continuously recorded for 15 minutes in a Molecular Devices plate reader. […] The ratio of the velocity (rate of change in absorbance as a function of time) for a sample containing no test compound is divided by the velocity of a sample containing test compound, and is plotted as a function of test compound concentration. The data are fit to a linear regression, and the value of the slope of the line calculated.

[2] = target: Autoactivated 2-chain human MASP-2 (His-tag, Cys300-Phe686) (Homo sapiens, UniProt O00187); conditions: read-out: MASP-2 Ki corr.; Ki app corrected for substrate concentration (45 μM, Km=8.6 μM); 37° C., pH 7.5
Procedure: Reagents: All buffer salts were obtained from Sigma Chemical Company (St. Louis, Mo.), and were of the highest purity available. DTNB was purchased from Pierce (Rockford, Ill.). Z-Gly-Arg-S-Bzl was purchased from Enzyme Systems Products (Livermore, Calif.).
as §1

Substance | Ki [1] [µM] | Ki [2] [µM]
Conjugation with a bisubstituted-PEG20K-(NH2)2 of 6-[3′(5-Carbamimidoyl-2-methylsulfanyl-thiophene-3-sulfonyl)-4-guanidino-6-methyl-biphenyl-2-ylcarbamoyl]-hexanoic acid tetra-trifluoroacetate [Example 8] | 0.029 | –
Tetravalent PEG 2′-urea conjugate of 4-(2′-amino-4′-guanidino-6′-methyl-biphenyl-3-sulfonyl)-5-methylsulfanyl-thiophene-2-carboxamidine (octa)-trifluoroacetate [Example 13] | 0.018 | –
mPEG20K 2′-urea of 4-(2′-amino-4 ′-guanidino-6′-methyl-biphenyl-3-sulfonyl)-5-methylsulfanyl-thiophene-2-carboxamidine bis-trifluoroacetate [Example 5] | 0.082 | 0.22
mPEG20K Amide of 3-{[3′-(5-Carbamimidoyl-2-methylsulfanyl-thiophene-3-sulfonyl)-4-guanidino-6-methyl-biphenyl-2-ylcarbamoyl]-methylsulfanyl}-propionic acid bis-trifluoracetate [Example 6] | 0.085 | –
mPEG20K Amide of 6-{3-[3′-(5-Carbamimidoyl-2-methylsulfanyl-thiophene-3-sulfonyl)-4-guanidino-6-methyl-biphenyl-2-yl]-ureido}-hexanoic acid bis-trifluoroacetate [Example 2] | 0.076 | 0.31
